Where “and” joins values, the source holds several entries; their conditions need not be identical. Equal entries are not always repeated. Where two headings read alike, the source gives them in different places.
Test system: human red cells
Settings: for [sulfonamide] in red blood cells, EI: enzymatic method

With Cc1c2cc(c(C)[n+]1-c1ccc(S(=O)(=O)Nc3nnc(S(N)(=O)=O)s3)cc1)CCCCCCCCC2 the “[sulfonamide] in red blood cells, ES” value was 0.3 µM and 0.6 µM, the “[sulfonamide] in red blood cells, HPLC” value was 0.4 µM and the “amount detected within the blood red cells (membrane penetration)” value (same conditions, incubation up to one hour, tested form: perchlorate) was “detected only in very small amounts”. The “[sulfonamide] in red blood cells, EI” value (t = 30 min, 2 mM sulfonamide, pH 7.4, tested form: perchlorate) was 0.5 µM, the “[sulfonamide] in red blood cells, HPLC” value (t = 60 min, 2 mM sulfonamide, pH 7.4, HPLC method, tested form: perchlorate) was 0.3 µM and the “[sulfonamide] in red blood cells, EI” value (t = 60 min, 2 mM sulfonamide, pH 7.4, tested form: perchlorate) was 0.5 µM.

From patent US8628771B2, “CA IX-specific inhibitors” (Institute of Virology Slovak Academy of Sciences, priority 2002, dated 2014)
